Earlier results in paper PMC9906638, “AlphaFold accelerates artificial intelligence powered drug discovery: efficient discovery of a novel CDK20 small molecule inhibitor” (Chemical Science, 2023).

The chains behind the UniProt entries cited, without tags or fusion partners. Where a name states a change or a piece, a line headed by the entry shows the natural chain unless it says otherwise.
UniProt Q8IZL9: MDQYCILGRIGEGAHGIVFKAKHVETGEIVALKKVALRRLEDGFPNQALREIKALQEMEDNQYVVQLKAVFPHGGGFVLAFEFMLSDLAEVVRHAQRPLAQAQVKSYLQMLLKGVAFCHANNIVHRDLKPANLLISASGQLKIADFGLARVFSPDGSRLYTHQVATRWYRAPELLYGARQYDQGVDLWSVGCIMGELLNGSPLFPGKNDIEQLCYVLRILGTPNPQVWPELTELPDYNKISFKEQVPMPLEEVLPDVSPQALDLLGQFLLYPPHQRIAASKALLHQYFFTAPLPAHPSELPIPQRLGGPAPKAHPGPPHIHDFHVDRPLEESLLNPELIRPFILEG

Target: T1, CDK20/CycT1 (Homo sapiens, UniProt Q8IZL9)
T1 construct: purchased Reaction Biology Corp. (33PanQinase Activity Assay service)
Set-up: method as in doi:10.1158/1538-7445.AM2016-2821
Settings: poster of Mueller et al.; cited from earlier work

For `CN1CC[C@H](c2c(O)cc(O)c3c(=O)cc(-c4ccccc4Cl)oc23)[C@H](O)C1` [Flavopiridol], which IC50 is on record?
The IC50 was 2600 nM.
